scFv variants of Ab-91 (heavy chain) against a SARS-CoV-2 spike peptide

Values reported by Engelhart et al. 2022, doi:10.1038/s41597-022-01779-4 (FLAb copy).

The target is the same throughout: PDVDLGDISGINAS, from the HR2 region of SARS-CoV-2 spike.

The variants keep the light chain, the linker and the frameworks of Ab-91 (scFv order VL, the linker GGGGSGGGGSGGGGS, VH).
VL: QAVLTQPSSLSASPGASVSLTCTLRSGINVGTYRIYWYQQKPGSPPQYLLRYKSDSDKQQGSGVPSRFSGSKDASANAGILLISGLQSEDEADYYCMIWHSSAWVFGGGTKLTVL
VH: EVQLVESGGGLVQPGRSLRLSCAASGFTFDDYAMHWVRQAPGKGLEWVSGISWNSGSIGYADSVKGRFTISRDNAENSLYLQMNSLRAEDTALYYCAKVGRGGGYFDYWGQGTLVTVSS

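The parent was found by panning a naive human phage display library on the peptide. In library AAYL51, one, two or three CDR residues were substituted; doubles and triples were drawn at random. AlphaSeq pools MATa yeast showing the antibodies with MATalpha yeast showing the peptide. Mating (16 h, 30 °C) was followed by selection of diploids and sequencing of their barcodes. Scores were corrected for input abundance and mapped to Kd with protein pairs of known affinity run in the same pool. Each pool was mated in three replicate cultures.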

The whole VH of each variant is written out.
Numbers give log10(Kd / nM), so 0 is 1 nM and 3 is 1 µM. Smaller is tighter.
A mean of the replicates is given; it leaves out those without a signal.
"nd" marks a missing value. The strain was present, yet no cells mated with the target were sequenced in any replicate, which points to weak or no binding.
For reference, the parent read 1.86 as the reference entry and 0.88 as a member of this library.
Nonspecific signal, from three strains lacking the peptide, appeared in 21% of pairings of library AAYL51, centred on 4.54 (5% of these signals below 3.26); values are not corrected for it.

The variant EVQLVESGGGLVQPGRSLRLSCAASSFTFDDYACHWVRQAPGKGLEWVSGMSWNSGSIGYADSVKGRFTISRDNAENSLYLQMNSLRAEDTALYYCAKVGRGGGYFDYWGQGTLVTVSS showed nd (0 of 3 replicates).
The variant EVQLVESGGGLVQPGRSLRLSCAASDFTFDDIAMHWVRQAPGKGLEWVSGISWNSGSIGYADSDKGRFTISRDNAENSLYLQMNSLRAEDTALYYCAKVGRGGGYFDYWGQGTLVTVSS showed 4.63 (2 of 3 replicates).
The variant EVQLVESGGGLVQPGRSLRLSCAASGPTFDDYADHWVRQAPGKGLEWVSGIQWNSGSIGYADSVKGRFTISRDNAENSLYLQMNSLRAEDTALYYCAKVGRGGGYFDYWGQGTLVTVSS showed 3.47 (1 of 3 replicates).
The variant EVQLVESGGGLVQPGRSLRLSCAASGFTFRDYAMHWVRQAPGKGLEWVSGISWNSGSIGYALSVKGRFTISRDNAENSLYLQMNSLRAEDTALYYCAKVVRGGGYFDYWGQGTLVTVSS showed 2.59 (3 of 3 replicates).
The variant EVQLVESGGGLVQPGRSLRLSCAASGFTFDDYANHWVRQAPGKGLEWVSAISWNSGSIGDADSVKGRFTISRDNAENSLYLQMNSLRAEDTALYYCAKVGRGGGYFDYWGQGTLVTVSS showed 5.55 (1 of 3 replicates).
The variant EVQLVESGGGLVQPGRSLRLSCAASGFAFDDYLMHWVRQAPGKGLEWVSGISWNMGSIGYADSVKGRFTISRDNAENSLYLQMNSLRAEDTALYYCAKVGRGGGYFDYWGQGTLVTVSS showed nd (0 of 3 replicates).
The variant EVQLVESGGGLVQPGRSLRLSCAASGFTFDKYAMHWVRQAPGKGLEWVSGISWNSGSMGYADKVKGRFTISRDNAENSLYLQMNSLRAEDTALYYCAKVGRGGGYFDYWGQGTLVTVSS showed 0.48 (3 of 3 replicates).
The variant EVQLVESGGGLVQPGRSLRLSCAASGFTFDDYAMHWVRQAPGKGLEWVSGISWNSGQHGYADSVKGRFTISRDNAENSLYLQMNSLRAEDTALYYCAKVGRGGAYFDYWGQGTLVTVSS showed 4.78 (1 of 3 replicates).
The variant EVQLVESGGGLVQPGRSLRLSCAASGFTFDDYAMHWVRQAPGKGLEWVSGISWNSGSIGYALSVKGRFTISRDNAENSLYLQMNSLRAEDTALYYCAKVSRGGGYDDYWGQGTLVTVSS showed 4.68 (3 of 3 replicates).
The variant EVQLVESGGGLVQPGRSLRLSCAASMFTFDDYAMAWVRQAPGKGLEWVSGISWNAGSIGYADSVKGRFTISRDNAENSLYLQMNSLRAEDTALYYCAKVGRGGGYFDYWGQGTLVTVSS showed nd (0 of 3 replicates).
The variant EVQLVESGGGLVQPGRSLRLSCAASQFTFMDYAMHWVRQAPGKGLEWVSGISWNSGSIGYADSVKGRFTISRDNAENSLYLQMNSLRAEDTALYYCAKVGRGGGYFDYWGQGTLVTVSS showed 3.25 (3 of 3 replicates).
The variant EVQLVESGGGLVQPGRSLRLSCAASGFTFDDYAMHWVRQAPGKGLEWVSGISWNSGSPGWADSVLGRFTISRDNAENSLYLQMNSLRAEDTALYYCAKVGRGGGYFDYWGQGTLVTVSS showed nd (0 of 3 replicates).
The variant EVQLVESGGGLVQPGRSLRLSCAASGFTNDDYAMHWVRQAPGKGLEWVSGIDFNSGSIGYADSVKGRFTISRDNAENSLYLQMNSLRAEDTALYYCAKVGRGGGYFDYWGQGTLVTVSS showed nd (0 of 3 replicates).

Further variants, results first:

5.50 (1 of 3 replicates): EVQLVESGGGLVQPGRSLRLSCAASRFTFDDYAMHWVRQAPGKGLEWVSGISWNSGSIGYADSGKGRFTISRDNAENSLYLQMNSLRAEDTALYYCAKVGMGGGYFDYWGQGTLVTVSS.
2.25 (3 of 3 replicates): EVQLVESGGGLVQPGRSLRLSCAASGHEFQDYAMHWVRQAPGKGLEWVSGISWNSGSIGYADSVKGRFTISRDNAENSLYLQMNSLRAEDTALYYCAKVGRGGGYFDYWGQGTLVTVSS.
4.60 (2 of 3 replicates): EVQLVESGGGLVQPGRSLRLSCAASGFTFDDYAMHWVRQAPGKGLEWVSGISWNSGSIGYADSHKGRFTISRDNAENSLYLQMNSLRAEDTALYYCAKVGRGSWYFDYWGQGTLVTVSS.
0.90 (3 of 3 replicates): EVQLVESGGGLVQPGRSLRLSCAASGFTFDDYAMHWVRQAPGKGLEWVSGISWDSGNIGYADSVKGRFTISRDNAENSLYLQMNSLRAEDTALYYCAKVGRGGGYFDKWGQGTLVTVSS.
5.10 (2 of 3 replicates): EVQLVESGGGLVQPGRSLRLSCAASGFTFDDYAHHWVRQAPGKGLEWVSGISWNSGSIGYADSVKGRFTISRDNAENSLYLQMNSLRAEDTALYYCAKVGRGGGYKYYWGQGTLVTVSS.
6.06 (1 of 3 replicates): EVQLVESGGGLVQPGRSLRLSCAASGFTFDDYAMHWVRQAPGKGLEWVSGITWNSGSIGYAKSVKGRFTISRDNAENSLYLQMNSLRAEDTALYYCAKVGRGGGYGDYWGQGTLVTVSS.
nd (0 of 3 replicates): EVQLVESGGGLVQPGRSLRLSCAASGKTFDDYAMHWVRQAPGKGLEWVSGISWNSGSFGYADSVKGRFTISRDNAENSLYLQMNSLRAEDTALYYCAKVGRGGLYFDYWGQGTLVTVSS.
nd (0 of 3 replicates): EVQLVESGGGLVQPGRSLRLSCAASGFTFDIYAMHWVRQAPGKGLEWVSGISWNSGSEGYADSVKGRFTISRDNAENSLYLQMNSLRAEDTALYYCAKVGRGWGYFDYWGQGTLVTVSS.
5.08 (2 of 3 replicates): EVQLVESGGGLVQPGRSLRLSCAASGFTYDDYAMDWVRQAPGKGLEWVSGISWNSGSIGYADSVKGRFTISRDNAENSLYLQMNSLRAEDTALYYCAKVGNGGGYFDYWGQGTLVTVSS.
4.45 (1 of 3 replicates): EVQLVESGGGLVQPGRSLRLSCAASKFTADDYAMHWVRQAPGKGLEWVSGISWNSGSIGYAFSVKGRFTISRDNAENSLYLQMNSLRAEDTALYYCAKVGRGGGYFDYWGQGTLVTVSS.
5.31 (1 of 3 replicates): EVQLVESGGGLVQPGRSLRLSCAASGFTFDDYAMHWVRQAPGKGLEWVSGISWNSGSIGYADSVKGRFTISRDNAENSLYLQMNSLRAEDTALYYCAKFRRGGHYFDYWGQGTLVTVSS.
5.28 (1 of 3 replicates): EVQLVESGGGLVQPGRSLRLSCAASGFTFDDYAMHWVRQAPGKGLEWVSGISWNSGSIGYDDSVKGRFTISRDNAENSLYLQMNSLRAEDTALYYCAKCGIGGGYFDYWGQGTLVTVSS.
nd (0 of 3 replicates): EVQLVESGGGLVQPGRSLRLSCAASGFTFDDYAMHWVRQAPGKGLEWVSGISWNTGSIGYADSVKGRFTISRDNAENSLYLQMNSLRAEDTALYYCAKVGRGCGYFEYWGQGTLVTVSS.

The 4 strongest on average among those seen in every replicate, once more:

VH,"log10 Kd (nM), mean",seen in
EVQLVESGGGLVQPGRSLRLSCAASGFTFDKYAMHWVRQAPGKGLEWVSGISWNSGSMGYADKVKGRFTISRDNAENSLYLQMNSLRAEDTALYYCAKVGRGGGYFDYWGQGTLVTVSS,0.48,3 of 3
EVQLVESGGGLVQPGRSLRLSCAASGFTFDDYAMHWVRQAPGKGLEWVSGISWDSGNIGYADSVKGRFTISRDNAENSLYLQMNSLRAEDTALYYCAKVGRGGGYFDKWGQGTLVTVSS,0.90,3 of 3
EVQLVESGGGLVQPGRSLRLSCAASGHEFQDYAMHWVRQAPGKGLEWVSGISWNSGSIGYADSVKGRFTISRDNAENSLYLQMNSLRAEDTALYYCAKVGRGGGYFDYWGQGTLVTVSS,2.25,3 of 3
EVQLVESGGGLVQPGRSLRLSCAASGFTFRDYAMHWVRQAPGKGLEWVSGISWNSGSIGYALSVKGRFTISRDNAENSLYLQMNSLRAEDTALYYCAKVVRGGGYFDYWGQGTLVTVSS,2.59,3 of 3